# AlphaSeq binding of Ab-14 light chain variants to a spike HR2 peptide

The target is the same throughout: PDVDLGDISGINAS, from the HR2 region of SARS-CoV-2 spike.

The variants keep the heavy chain, the linker and the frameworks of Ab-14 (scFv order VH, three GGGGS repeats, VL).
VH: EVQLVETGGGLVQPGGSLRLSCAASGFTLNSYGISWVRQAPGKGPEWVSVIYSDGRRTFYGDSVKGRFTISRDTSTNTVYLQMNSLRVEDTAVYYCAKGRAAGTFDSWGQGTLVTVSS
VL: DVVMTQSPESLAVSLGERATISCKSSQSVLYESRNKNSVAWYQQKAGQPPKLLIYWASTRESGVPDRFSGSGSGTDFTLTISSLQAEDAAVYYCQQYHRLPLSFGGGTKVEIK

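The starting antibody came from a phage panning campaign against this peptide. The variants were designed computationally from a first round of random CDR variants and then made and measured. Several design methods are mixed in this list. In AlphaSeq, yeast of one mating type display the scFv and yeast of the other type display the target. The frequency of each diploid, read from paired DNA barcodes, reflects how well the two displayed proteins bind. Read counts were normalised to the haploid input and turned into Kd by a linear fit to BCL2-family pairs of known affinity, for each replicate. The assay was run in six technical replicates.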

Variants are written as CDR1, CDR2 and CDR3 of the light chain (limits as in the source). Parent: KSSQSVLYESRNKNSVA, WASTRES, QQYHRLPLS.
The read-out is the apparent dissociation constant on a log10 scale (nM): the lower, the stronger.
Replicates are averaged; those with no signal do not enter the mean.
"no signal" marks a missing value. The strain was present, yet no cells mated with the target were sequenced in any replicate, which points to weak or no binding.

CDR-L1	CDR-L2	CDR-L3	log10 Kd (nM), mean	seen in	empty controls
HITYGMQVAGRHSKSIA	QAEERAK	QQYDRLPLI	0.94	6/6	1/18
KQQFSGMYGSRNKNSVA	KASTRES	QQYHRLPLS	1.93	6/6	0/18
KIGATLNSLYEKQNNVA	DLVEREN	QQYHRLPLS	0.29	6/6	1/18
QLGDMVHTESRNKNSIA	DMRTRES	QQYYRLPLS	-0.12	6/6	1/18
KSSQSQLYESRNKNSVA	GASQRES	QQYHRLTLS	2.49	1/6	0/18
KSSQIVLYESRNKNSVA	DASTRES	QQYHRDPLS	2.68	3/6	0/18
SMIPFDNQIGKGTNNIA	HVSVRAS	QQYARLPLV	0.61	6/6	0/18
NFSQMVLTGSTLRNSVA	HASTRFN	QQYHRLPLI	1.99	6/6	1/18
KSSQSVLAESRNKNSVA	WASTRES	QQPHRLPLS	no signal	0/6	0/18
TLTQVQGMESHNHDSVA	DLSTRGS	QQYHRLPLS	0.06	6/6	0/18
MISDLTMYGSRNVNSVA	DLSNRGS	QQYDRLPLS	0.84	6/6	2/18
KLQQSELYESRMKNSVA	NASTRLS	QQYHRLPLS	0.20	6/6	1/18
KSSQSYHYESRNKNSVA	GASTREQ	QQYHRLPLS	0.11	6/6	1/18
KSQISQWYEDRNKNSVA	SASTREE	QQYHRLPLS	0.06	6/6	0/18
KIGATLNTLYEKKNNVA	DLVMRES	QQYHRLPLS	0.23	6/6	0/18
KIGATLDTLYEKKNNVA	DLVVREN	QQYHRLPLS	0.20	6/6	0/18
KLMNSLGAFKQWEDNVA	EVEHKVA	QQYQHLPLT	1.31	6/6	3/18
KLMEQALYESRNKNSVA	QASTREV	QQYHRLPLS	-0.28	6/6	0/18
SVSPSTLYESRNKNSVA	NASTRES	QQYHRLPLS	-0.38	6/6	0/18
SSSRSVLYESTNKNSIA	WASTRES	QQYLRLPLS	1.53	3/6	0/18
KLYQSEGYESRMKNNVA	NASLRES	QQYHRLPLS	-0.14	6/6	3/18
KSGQGVLIESRNKNHVA	GASTRES	QQYHRLPLS	0.07	6/6	1/18
KSSESVLYESHNKNSVA	EASTRMS	QQYHRLPLS	1.40	6/6	0/18
KSYSSVLKESLNKNPVA	WASTRER	QQYHRLPCS	no signal	0/6	0/18
KQSQSMLCESRNKNSVA	DASTRES	QQYHRLPLS	0.31	6/6	0/18
KQSQSVLYESRNKNAVA	DASTRES	QQYHRLPLS	-0.25	6/6	0/18
KSSQSVLMESRNKNSVA	EASTRES	QNYHRLPLQ	1.31	6/6	2/18
KLQQSWLYESRNKNSVA	GASTRES	QQYHRLPLS	0.01	6/6	0/18
KLRQSTLYESRNKNSVA	LASTRFS	QQYHRLPLS	1.45	6/6	0/18
KLMDNPWVEDHYRKAIA	DINVKAD	QQYHRLPLS	0.66	6/6	1/18
NISHFMDVTAKNINNVA	EMTMREV	QQYHHLPLS	1.51	6/6	0/18
KFVQSWGYESRNKNAVA	HASTRCD	QQYHRLPLS	0.35	6/6	2/18
TLSMSWGMESHHKNNVA	QESTREK	QQYFRLPIS	2.23	4/6	1/18
KSQQSQGYESRNKNSVA	HASTRED	QQYHRLPLS	0.25	6/6	2/18
KLYQSVLYESRNKNSVA	NASTRES	QQYHRLPLM	-0.41	6/6	0/18
KLSQSVGYESRNKNNVA	HASTRES	QQYHRLPLS	-0.37	6/6	5/18
KSSYSVLQESRNKNDVA	WASTRES	QQYHRLPLS	no signal	0/6	0/18
KLSMLWLMESRNHNSVA	SANTRES	QQYHRLPLS	0.72	6/6	0/18
KLSQSTLYESRNKNSVA	NASTREQ	QQYHRLPLS	-0.18	6/6	3/18
HMNKFMSQIGGARNNVA	GDTTLAQ	QHYHRLPLS	3.24	3/6	1/18
KSSQSVLIESRNKNSVA	WASTRNS	QQYHRLPLS	1.02	6/6	1/18
KLSQSMLYESRNKNSVA	HASTRES	QQYHRLPLS	-0.24	6/6	3/18
KSSWSVLGESRNKNSVA	DASTRES	QQYHRLPLS	-0.26	6/6	1/18
KMSQMVEYESRNKNSVA	WASTRES	QQYHRLPLS	no signal	0/6	0/18
KLSQSVLYESRNKNSVA	EASTRLS	QDYHRLPLS	0.15	6/6	1/18
KLSQVTEYEMHQKNNVA	DLTTRGS	QDYHRLPLS	0.56	6/6	0/18
KITDHFLGLGNGRQNIA	HAMVAVE	QQYHQLPLA	0.76	6/6	0/18
KMSQSVLYESTNKNSVA	GASTRES	QQYHRLPLS	1.75	1/6	0/18
KLQQSWLYESRNKNAVA	NASQRES	QQYHRLPLS	0.25	6/6	3/18
FMDFQMLEWQYDANNIA	GATLSIE	QQYGRLPLT	no signal	0/6	0/18
KLDQSELYESRNKNSVA	EASTRES	QQYHRLPLS	-0.32	6/6	1/18
KLQNFSQEPNKMWNNIA	DMTMKHT	QQYNRLPLV	0.44	6/6	0/18
MISQSFLIGMKAKNSVA	QTSTRES	QQYDRLPLS	0.71	6/6	0/18
KVSQSVLYESRNKNSVA	YASTRCS	QCYHRLPLS	2.53	5/6	1/18
RSSQGVLYESRNKNSVA	WASTRES	QQYHRLPLS	2.32	1/6	1/18
KLSQSVLMEWRNKNSVA	DASTRES	QQYHRLPLS	0.06	6/6	1/18
VLGGQWGLGTTNNSAIA	NDSETML	QQYWRLPFM	1.78	6/6	2/18
KSSHSVLYESQNKNSVA	WASTREN	QQTHRLPLS	2.62	3/6	1/18
TLGDVTRMQSNKKNSIA	DMSNRAD	QQYHRLPLS	-0.14	6/6	0/18
KSSISYLYESMNKNSVA	EASTRES	QQYHRLPLS	0.20	6/6	1/18
KVPQSNLYESRNKNSVA	NASTRES	QQYHRLPLS	-0.19	6/6	1/18
KGSQSVLYESRNKYSVA	SASTRES	QQYHREPLS	no signal	0/6	0/18
KIDQKVLYESRNKNSVA	HASTRES	QQYHRLPLS	-0.28	6/6	3/18
KSSQSVLYERLNKNSVA	WASTRES	QQYHRLPLS	1.75	5/6	0/18
KSSQSNLYESAKKNNVA	WASTRES	QQYHGLPLS	3.53	2/6	0/18
TISQMTALFNQTINNVA	EVSTREN	QQYDRLPLM	1.17	6/6	1/18
MMSQVQGMGTRHRNNVA	QTSTREE	QQYDRLPLV	0.73	6/6	1/18
KSSISQLYESMNKNSVA	LGSTRES	QQYHRLPLS	1.00	5/6	2/18
KSSISCLEESRNKNSVA	EASTRES	QQYHRLPLS	-0.04	6/6	0/18

Top 8 of the variants detected in all replicates, tightest first:

| CDR-L1 | CDR-L2 | CDR-L3 | log10 Kd (nM), mean | seen in | empty controls |
|---|---|---|---|---|---|
| KLYQSVLYESRNKNSVA | NASTRES | QQYHRLPLM | -0.41 | 6/6 | 0/18 |
| SVSPSTLYESRNKNSVA | NASTRES | QQYHRLPLS | -0.38 | 6/6 | 0/18 |
| KLSQSVGYESRNKNNVA | HASTRES | QQYHRLPLS | -0.37 | 6/6 | 5/18 |
| KLDQSELYESRNKNSVA | EASTRES | QQYHRLPLS | -0.32 | 6/6 | 1/18 |
| KLMEQALYESRNKNSVA | QASTREV | QQYHRLPLS | -0.28 | 6/6 | 0/18 |
| KIDQKVLYESRNKNSVA | HASTRES | QQYHRLPLS | -0.28 | 6/6 | 3/18 |
| KSSWSVLGESRNKNSVA | DASTRES | QQYHRLPLS | -0.26 | 6/6 | 1/18 |
| KQSQSVLYESRNKNAVA | DASTRES | QQYHRLPLS | -0.25 | 6/6 | 0/18 |

Values of this round are not directly comparable with the first-round values of the same sequences.
In the paper, a design with two or fewer of six values counts as a poor binder.
Empty control strains, which show no peptide, gave a signal in 4% of pairings with all light chain designs; the median was 2.64 and 95% of these signals were weaker than 1.59. No background was subtracted. The control count says in how many pairings with the empty strains this scFv gave a signal.

The measurements come from Li et al. 2023 (doi:10.1038/s41467-023-39022-2) through the FLAb antibody collection.